Source: PubChem BioAssay AID651725 (National Center for Advancing Translational Sciences (NCATS), 2012)
The list shows a part of the results, in another mix than the full data. Some salts or complexes appear as unconnected parts, following the source record. Active and inactive are the calls of the source. Cut-off read from the data, not from the text of the source: active = activity change below about -65%; inconclusive = mostly about -30% to -63%; inactive = weaker than that.

Sequences of proteins named here, by UniProt entry; tags and fusion partners are left off.
UniProt Q15475, whole entry: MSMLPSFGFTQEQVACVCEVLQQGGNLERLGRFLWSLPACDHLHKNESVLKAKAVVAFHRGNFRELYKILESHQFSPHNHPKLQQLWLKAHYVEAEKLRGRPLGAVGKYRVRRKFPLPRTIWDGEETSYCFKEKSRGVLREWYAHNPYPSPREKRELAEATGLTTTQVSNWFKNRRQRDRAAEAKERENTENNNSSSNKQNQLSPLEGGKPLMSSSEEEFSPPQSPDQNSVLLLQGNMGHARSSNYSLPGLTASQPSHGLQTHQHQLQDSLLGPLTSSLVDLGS

What follows are compounds tested against Homeobox protein SIX1 (Homo sapiens) + Protein phosphatase EYA2 (Homo sapiens) (UniProt Q15475+O00167) (assay: qHTS Assay for Inhibitors of the Six1/Eya2 Interaction). Conditions: AlphaScreen GST-Six1/His-Eya2 binding, biochemical; stronger effect = lower value.
From the text: Its expression is low or undetectable in normal adult breast tissue but the gene is over-expressed in 50% of primary breast tumors and 90% of metastatic lesions. […] Similar to Six1, Eya2 is also not expressed in most normal adult tissues, but is reexpressed in cancers. The Six1-Eya interaction is essential for proliferation during embryonic development, and both Six1 and Eya2 have been independently implicated in the same types of cancer. Because Six1 and Eya2 are embryonic genes with little expression in adult tissues, inhibitors of their expression/activity are likely to have limited side effects. Our goal is to identify inhibitors of the Six1/Eya interaction for potential cancer therapy. To this end, we have developed a homogenous AlphaScreen assay targeting the Six1/Eya interaction. We performed a large scale HTS of the Molecular Libraries Small Molecule Repository (MLSMR) to identify inhibitors of the Six1/Eya interaction as potential anti-cancer therapeutics. Compounds identified can also be used as chemical probes to better understand the biological functions of Six1 and Eya. NIH Chemical Genomics Center [NCGC] NIH Molecular Libraries Probe Centers Network [MLPCN] MLPCN Grant: DA033147 Assay Submitter (PI): Rui Zhao, University of Colorado Denver
The first step of the 5 uL AlphaScreen assay is to dispense assay buffer (50 mM Tris, pH 8.0, 300 mM NaCl, 0.05% BSA, 0.02% Tween 20, 1 mM TCEP) into a Greiner 1536 white solid bottom microtiter plate (789175-F). Five microliters is added to Column 1, 4 uL is added to Column 2 and 3 uL is added to Columns 3 through 48. A 5X protein solution (250 nM GST-Six1 protein + 500 nM His-tagged Eya2 protein) is mixed and 1 uL is dispensed to Columns 3-48. Using a 1536 pintool, 23 nL of compound is transferred to the assay plate. A solution of 5X AlphaScreen beads is mixed (50 ug/mL Glutathione linked donor beads + Nickel chelated acceptor beads) and 1 uL is dispensed to Columns 2-48. The assay plate is incubated for one hour, with a lid, at 37 deg C in the dark. The plate is read using a Perkin Elmer Envision using an AlphaScreen protocol.
% is set by controls: 0 for no effect and ±100 for the full control effect.

Compound	activity change
CN(C)C1(CNC(=O)c2cccc(C#N)c2)CCCCC1	inactive: 4.61%
CC(C)(C)n1nnnc1C(c1cccc2ccccc12)N1CCC(n2c(=O)[nH]c3ccccc32)CC1 (stereo not given)	inactive: -12.2%
CC(C)(C)OC(=O)N1CCC(N(C(=O)c2ccccc2)c2ccc(Cl)cc2)CC1	inactive: -7.31%
N#Cc1ccc(C(=O)NCC2(N3CCCCC3)CCCCC2)cc1	inactive: -14%
CCOC(=O)C(CC)C1=NC(C)(C)Cc2ccccc21.O=[N+]([O-])c1cc([N+](=O)[O-])c(O)c([N+](=O)[O-])c1 (stereo not given)	inactive: -3.98%
O=C(NCC1(N2CCCCC2)CCCCC1)c1cccc(C(F)(F)F)c1	inactive: 4.5%
O=[N+]([O-])c1cc([N+](=O)[O-])c(NCC2CCS(=O)(=O)C2)c([N+](=O)[O-])c1 (stereo not given)	inactive: -17.8%
COc1ccc(NC2CCN(C(=O)OC(C)(C)C)CC2)cc1	inactive: -17%
CC(C)c1ccc(C(=O)NCC2(N3CCOCC3)CCCCC2)cc1	inactive: 5.15%
CN1CCN(CCOC(=O)C(O)(c2ccccc2)c2ccccc2)CC1	inactive: 2.94%
CCCCn1nnnc1C(c1cccc2ccccc12)N1CCC(n2c(=O)[nH]c3ccccc32)CC1 (stereo not given)	inactive: -12.9%
O=C(NCC1(N2CCOCC2)CCCCC1)c1cc(=O)[nH]c2ccccc12	inactive: 12.5%
COc1cc(C(=O)NCC2(N3CCCCC3)CCCCC2)ccc1OC(F)F	inactive: -0.688%
CC(C)(C)n1nnnc1C(c1ccccc1OC(F)(F)F)N1CCC(n2c(=O)[nH]c3ccccc32)CC1 (stereo not given)	inactive: -0.865%
O=C(NCC1(N2CCCCC2)CCCCC1)c1ccc(OC(F)F)cc1	inactive: -6.83%
CSc1ccc(C(=O)NCC2(N3CCOCC3)CCCCC2)cc1	inactive: 7.95%
O=C(NCC1(N2CCCCC2)CCCCC1)c1cccc([N+](=O)[O-])c1	inactive: 3.9%
CCN1CCC(Nc2ccc(Cl)cc2)CC1	inactive: -1.83%
O=c1[nH]c2ccccc2n1C1CCN(C(c2ccccc2OC(F)(F)F)c2nnnn2C2CCCC2)CC1 (stereo not given)	inactive: -9.48%
N#CC1(Nc2ccccc2)CCN(CCc2ccccc2)CC1	inactive: -0.29%
CN1CCC(Nc2cccc(F)c2)CC1	inactive: 2.28%
O=C(NCC1(N2CCCCC2)CCCCC1)c1cncc(Br)c1	inactive: 5.26%
COc1ccc2c(c1O)-c1c(O)c(OC)cc3c1[C@H](C2)[N+](C)(C)CC3.O=[N+]([O-])c1cc([N+](=O)[O-])c([O-])c([N+](=O)[O-])c1[O-]	inactive: -7.88%

Compound	activity change
O=C(OC1CN2CCC1CC2)c1ccc([N+](=O)[O-])cc1 (stereo not given)	inactive: -7.36%
Cc1ccc(C(=O)NCC2(N(C)C)CCCCC2)o1	inactive: 0.253%
CCCOc1ccc(C(=O)NCC2(N(C)C)CCCCC2)cc1OC	inactive: -0.539%
COc1ccc(C(c2nnnn2C2CCCC2)N2CCC(n3c(=O)[nH]c4ccccc43)CC2)cc1 (stereo not given)	inactive: -11.8%
COc1ccc(CN(CCCl)CCCl)cc1Cl	inactive: 2.8%
CN(C)c1cccc(C(=O)NCC2(N3CCCCC3)CCCCC2)c1	inactive: -1.53%
O=[N+]([O-])c1cc([N+](=O)[O-])c(OC2CCCCC2O)c([N+](=O)[O-])c1 (stereo not given)	inactive: 17.7%
CCCCn1nnnc1C(c1ccccc1OC(F)(F)F)N1CCC(n2c(=O)[nH]c3ccccc32)CC1 (stereo not given)	inactive: -6.65%
CCCCn1nnnc1C(c1ccnc2ccccc12)N1CCC(n2c(=O)[nH]c3ccccc32)CC1 (stereo not given)	inactive: -1.46%
COc1cc(OC)c(C(=O)NCC2(N(C)C)CCCCC2)cc1OC	inactive: 4.13%
CCC(c1nnnn1C(C)(C)C)N1CCC(n2c(=O)[nH]c3ccccc32)CC1 (stereo not given)	inactive: 1.44%
O=C(NCC1(N2CCOCC2)CCCCC1)c1cc(F)c(F)cc1Cl	inactive: 3.25%
O=C(NCC1(N2CCOCC2)CCCCC1)c1cc2ccccc2o1	inactive: -6.08%
O=C(NCC1(N2CCCCC2)CCCCC1)c1ccc(Cl)nc1	inactive: 1.07%
O=c1[nH]c2ccccc2n1C1CCN(C(c2ccccc2OC(F)(F)F)c2nnnn2C2CCCCC2)CC1 (stereo not given)	inactive: 0.131%
Cc1cc(C)cc(N(C(=O)c2ccccc2)C2CCN(C(=O)OC(C)(C)C)CC2)c1	inactive: 5.68%
CCOC(=O)N1CCC(Nc2ccc(OC)cc2)CC1	inactive: -4.26%
CCCCn1nnnc1C(c1ccc(OC)cc1)N1CCC(n2c(=O)[nH]c3ccccc32)CC1 (stereo not given)	inactive: -0.998%
N#CC1(Nc2ccccc2)CCN(Cc2ccccc2)CC1	inactive: -10.3%
O=C(NCC1(N2CCCCC2)CCCCC1)c1ccc(Cl)s1	inactive: 4.05%
O=c1[nH]c2ccccc2n1C1CCN(C(c2cc3ccccc3o2)c2nnnn2C2CCCCC2)CC1 (stereo not given)	inactive: -13.1%
O=C(OC1CN2CCC1CC2)C1c2ccccc2Oc2ccccc21 (stereo not given)	inactive: -3.17%
